Patent US20060153931A1, “Prevention of flap necrosis in plastic surgery” (priority 2001, published 2006)
Only a part of the results on these compounds is given; other tests are left out.

System: free tissue transfer of forearm tissues to the face
Test: Patient with free tissue transfer, vasospasm after reattachment (Example I)
Format: in vivo, human
Conditions: topical application, 50 mM, instead of the ethyl nitrite

sodium nitroprusside
vasodilation and blood flow after vasospasm: same result
